Test results reported in US20090197852A9 (priority 2001, published 2009).

Assay: Trastuzumab concentration PK (ELISA) in trial of 17-AAG with trastuzumab

In the case of trastuzumab, the “effect of the dose level of 17-AAG on the PK of trastuzumab” value (cohorts 1 to 3 (225, 300, 375 mg/m^2 17-AAG)) is reported as “did not affect the PK of trastuzumab” and the AUCtotal (overall, trastuzumab 4 mg/kg loading dose over 90 min, first infusion) is reported as 12,947±3,442 μg/m*h.
